The results in this text go back to ChEMBL document CHEMBL4765376, “Discovery of an Orally Available Diazabicyclooctane Inhibitor (ETX0282) of Class A, C, and D Serine β-Lactamases” (J Med Chem, 2020).

In assay [1] the test system is Bacteria. The experiment in a line: Inhibition of bacterial KPC-2 assessed as ratio of Kinact/Ki using nitrocefin as chromogenic substrate by fluorescence plate reader analysis.
The subject of assay [2] is Bacteria. The experiment in a line: Inhibition of bacterial CTX-M-14 assessed as ratio of Kinact/Ki using nitrocefin as chromogenic substrate by fluorescence plate reader analysis.
The subject of assay [3] is Bacteria. The assay can be described thus: Inhibition of bacterial OXA-24 assessed as ratio of Kinact/Ki using nitrocefin as chromogenic substrate by fluorescence plate reader analysis.
For the next assay, the system named is Pseudomonas aeruginosa. The assay can be described thus: Inhibition of beta lactamase AmpC in Pseudomonas aeruginosa assessed as ratio of Kinact/Ki using nitrocefin as chromogenic substrate by fluorescence plate reader analysis.
For assay [4], the system named is Bacteria. The experiment in a line: Inhibition of bacterial OXA-48 assessed as ratio of Kinact/Ki using nitrocefin as chromogenic substrate by fluorescence plate reader analysis.
Another assay concerns Enterobacter cloacae. The assay can be described thus: Inhibition of beta lactamase P99 in Enterobacter cloacae assessed as ratio of Kinact/Ki using nitrocefin as chromogenic substrate by fluorescence plate reader analysis.
The subject of assay [5] is Bacteria. The experiment in a line: Inhibition of bacterial OXA-23 assessed as ratio of Kinact/Ki using nitrocefin as chromogenic substrate by fluorescence plate reader analysis.
For assay [6], the system named is Bacteria. The experiment in a line: Inhibition of bacterial SHV-5 assessed as ratio of Kinact/Ki using nitrocefin as chromogenic substrate by fluorescence plate reader analysis.
Assay [7] concerns Bacteria. The experiment in a line: Inhibition of bacterial CTX-M-15 assessed as ratio of Kinact/Ki using nitrocefin as chromogenic substrate by fluorescence plate reader analysis.
The test system of another assay is Escherichia coli. The assay can be described thus: Inhibition of Escherichia coli PBP2 assessed as ratio of Kinact/Ki by SDS-PAGE based fluorescence assay.
For assay [8], the system named is Bacteria. The assay can be described thus: Inhibition of bacterial OXA-10 assessed as ratio of Kinact/Ki using nitrocefin as chromogenic substrate by fluorescence plate reader analysis.
Assay [9] concerns Bacteria. The assay can be described thus: Inhibition of bacterial TEM-1 assessed as ratio of Kinact/Ki using nitrocefin as chromogenic substrate by fluorescence plate reader analysis.

Calls of active or inactive are those of the source. No cut-off for these calls is given here.

As for `CC1=C[C@H](C(N)=O)N2C[C@@H]1N(O[C@H](F)C(=O)O)C2=O`, the Ratio with Bacteria [1] was 4.9 10^4/M/s; with Bacteria [2], 2 10^6/M/s; with Bacteria [3] it was 4.6 10^3/M/s; in the assay with Pseudomonas aeruginosa, 1.2 10^4/M/s; with Bacteria [4] it was 5.3 10^4/M/s; in the assay with Enterobacter cloacae, 3.9 10^4/M/s. Moreover, the Ratio in the assay on Bacteria [5] is 1.54 10^3/M/s; in the assay on Bacteria [6], 3.2 10^6/M/s; with Bacteria [7] it was 4.8 10^6/M/s; in the assay with Escherichia coli it was 9.3 10^3/M/s; in the assay with Bacteria [8], 6.8 10^2/M/s. In the assay on Bacteria [9], the Ratio entry was “inactive”.
